Experimental data taken from ChEMBL document CHEMBL1149313, “Synthesis of classical, three-carbon-bridged 5-substituted furo[2,3-d]pyrimidine and 6-substituted pyrrolo[2,3-d]pyrimidine analogues as antifolates” (J Med Chem, 2004).

By UniProt entry, the sequences of proteins in these tests, tags left out.
UniProt C3SWJ7, whole entry: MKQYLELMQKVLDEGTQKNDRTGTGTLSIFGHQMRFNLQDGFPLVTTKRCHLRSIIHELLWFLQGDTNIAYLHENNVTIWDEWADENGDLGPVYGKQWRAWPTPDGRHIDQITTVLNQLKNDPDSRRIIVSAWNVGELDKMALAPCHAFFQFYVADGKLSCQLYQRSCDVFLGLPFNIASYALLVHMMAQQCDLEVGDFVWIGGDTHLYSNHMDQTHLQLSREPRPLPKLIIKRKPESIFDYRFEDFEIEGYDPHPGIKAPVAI

Target: Thymidylate synthase (Escherichia coli, UniProt C3SWJ7)
Experiment: Inhibition of Escherichia coli thymidylate synthase

`Nc1nc2[nH]cc(CCc3ccc(C(=O)N[C@@H](CCC(=O)O)C(=O)O)cc3)c2c(=O)[nH]1` [PEMETREXED] showed an IC50 of 38 µM.
